This note sets out measurements from patent US6552010B1, “Treatment of SLE with dehydroepiandrosterone” (Genelabs Technologies, Inc., priority 1999, dated 2003).

The conditions of this assay: in vivo.

Take `C[C@]12CC[C@H](O)CC1=CC[C@@H]1[C@@H]2CC[C@]2(C)C(=O)CC[C@@H]12` [DHEA form I, dehydroepiandrosterone]: the Therapeutic activity result is “good therapeutic activity”.

For `C[C@]12CC[C@H](O)CC1=CC[C@@H]1[C@@H]2CC[C@]2(C)C(=O)CC[C@@H]12` [DHEA form II, dehydroepiandrosterone], the Therapeutic activity result is on record as “good therapeutic activity”.
